Sequences of proteins named here, by UniProt entry; tags and fusion partners are left off. A change or cut given only in a name is not applied to a line headed by its entry.
UniProt Q6P6C2: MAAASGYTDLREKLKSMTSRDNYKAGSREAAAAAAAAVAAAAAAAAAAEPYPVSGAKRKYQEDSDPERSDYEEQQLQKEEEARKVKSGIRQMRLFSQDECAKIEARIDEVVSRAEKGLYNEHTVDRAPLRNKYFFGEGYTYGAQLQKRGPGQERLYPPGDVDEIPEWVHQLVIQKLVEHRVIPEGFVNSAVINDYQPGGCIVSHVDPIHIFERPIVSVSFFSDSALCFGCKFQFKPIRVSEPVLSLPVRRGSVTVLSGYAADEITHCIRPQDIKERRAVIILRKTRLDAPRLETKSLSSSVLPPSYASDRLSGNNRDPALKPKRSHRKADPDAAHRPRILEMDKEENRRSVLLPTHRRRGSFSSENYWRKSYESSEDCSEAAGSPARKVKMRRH

In ChEMBL document CHEMBL5375956, “Discovery of Pyrazolo[1,5-a]pyrimidine Derivative as a Novel and Selective ALKBH5 Inhibitor for the Treatment of AML” (J Med Chem, 2023):

Experiments:
[1] = target: T1, RNA demethylase ALKBH5 (Homo sapiens, UniProt Q6P6C2); experiment: Binding affinity to biotinylated ALKBH5 (66 to 292 residues)(unknown origin) expressed in Escherichia coli BL21(DE3) assessed as association constant (Kon) by BLI assay
[2] = target: T1, RNA demethylase ALKBH5; experiment: Binding affinity to biotinylated ALKBH5 (66 to 292 residues)(unknown origin) expressed in Escherichia coli BL21(DE3) assessed as dissociation constant (Kdis) by BLI assay

K [1]: 1.88 10^3/Ms
K [2]: 1.25 10^-2/s
Structure (SMILES): O=C(OCc1ccc(C(F)(F)F)cc1)c1ccc(-c2cc3ncc(C(=O)c4c(O)ccc([N+](=O)[O-])c4O)cn3n2)cc1
